Only some compounds are listed: those with a hit (about 2.8% of all), similar ones and a draw of the others.
PGC1a acetyl inh – lowers PGC1a acetylation signal in U2OS cells; AlphaScreen anti-acetyl-lysine; with virally co-expressed GCN5 acetyltransferase; inhibition, % at 15.6 µM; hit rate 0.17% among 350,000; AID 651687;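 active means every replicate shows inhibition of at least 40%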;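 further: 0% = neutral control wells and 100% = positive control wells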
C2C12 statin – suppressors of simvastatin-induced myotoxicity in C2C12 myotubes; ATP luminescence, 48 h; scaled: DMSO 0, geranylgeraniol control 100; rescue of ATP level, % at 7.49 µM; hit rate 0.78% among 330,000; AID 602340;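 active means mean ATP rescue above about 67%, or every replicate alone reaching that limit, limit read from the data, passing the limit was not always enough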;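 further: myotubes were challenged with 10 µM simvastatin during compound exposure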
UUG fidelity – modulators of yeast start codon fidelity, primary screen, whole organism, S. cerevisiae, single point, plate reader; S. cerevisiae UUG-firefly luciferase reporter, luminescence/redox ratio; activity score, % at 18.7 µM; actives 0.13% (n = 350,000);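 active means replicate mean at a twofold rise or more, about +100% in these data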;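 further: firefly luciferase made from a UUG start codon reports start codon fidelity; reporter light over untreated wells divided by growth signal over untreated wells; some hits fall short of that in this replicate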
E-sel inducer – E-selectin induction on HUVECs | activation, % at 7.58 µM | hit rate 0.37% among 260,000 | HUVEC E-selectin immunofluorescence imaging; normalized: neutral wells 0, TNF-alpha wells 100;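 active means mean E-selectin-positive cell signal at least 10% of the positive control, reached in at least 60% of replicates, without over 20% cell loss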
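System: HUVEC / Compound: single concentration / Signal: immunofluorescence imaging / Read-out: percent E-selectin-positive cells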
PglD inh – inhibitors of Campylobacter jejuni PglD acetyltransferase. inhibition, % at 12.5 µM. purified PglD enzyme, DTNB colorimetric CoA detection. hit rate 0.098% among 360,000. AID 602405; in the data active means inhibition above about 16%, passing the limit was not always enough
esBAF inh – blocks esBAF chromatin remodeling in mouse ES cells; Bmi1-luciferase knock-in reporter, 24 h; 100% = twice the neutral-well signal; reporter increase, % at 12.5 µM; hit rate 2% among 350,000; in the data active means activation above about 40%;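 further: 0% = median of the plate's neutral control wells and 100% = double that signal; a rise in the Bmi1 reporter signal indicates esBAF inhibition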
* marks the source's active call; other numbers are inactive results; x = no result.

SMILES	PGC1a acetyl inh	C2C12 statin	UUG fidelity	E-sel inducer	PglD inh	esBAF inh
Cc1noc(C)c1NC(=O)N(C)C[C@@H]1OCCCC[C@H](C)Oc2ccc(NS(=O)(=O)c3cn(C)cn3)cc2C(=O)N([C@@H](C)CO)C[C@@H]1C	5.4	-2.3	-13.4	-0.2	-5.3	2.7
C[C@@H]1CN([C@H](C)CO)S(=O)(=O)c2ccc(C#CC3CC3)cc2O[C@@H]1CN(C)C(=O)c1ccccc1	-11.4	-10.9	6.6	0.3	-1.1	0.7
COCC(=O)N(C)C[C@@H]1Oc2cc(C#C[C@@H](C)O)ccc2S(=O)(=O)N([C@@H](C)CO)C[C@@H]1C	-5.8	8.8	1.1	0.7	-1.2	2.5
Nc1nc(SCc2ccccn2)c2ncn(C3CCCC3)c2n1	12.2	3.4	-12.2	-0.2	-5.5	44.3*
CCCn1cnc2c(SCc3ccccn3)nc(N)nc21	-1.8	-1.9	-20.9	-1.8	-0.9	12.6
CC1/C(=C\c2ccc(Cl)cc2)C(=O)C2CC1C2(C)C (stereo not drawn)	10.9	x	-7.3	x	-3.9	6.4
CC1CCC(C(C)C)C(=O)/C1=C/c1ccc(N)cc1 (stereo not drawn)	2.1	21.8	-31.9	0.9	-0.3	58.7*
CCn1c(O)c(C=NC2CCCC2)sc1=S	-8.3	2.1	0.1	x	-3.2	44.6*
CCn1c(O)c(/C=N/n2cnnc2)sc1=S	10.6	-1.2	-3.0	x	-1.6	-8.2
CC(=O)N(C)C[C@@H]1Oc2cc(-c3ccc(C#N)cc3)ccc2S(=O)(=O)N([C@@H](C)CO)C[C@H]1C	-4.8	-3.3	29.4	-0.3	1.7	-2.7
Clc1ccc(SCc2cc(-c3ccccc3)on2)cc1	-3.3	-8.5	-6.1	x	-5.7	-3.6
c1ccc(Cc2cc(-c3ccccc3)on2)cc1	-21.5	5.4	0.8	x	-1.3	66.3*
C/C(=N\Nc1cccc2cccnc12)c1ccc[nH]1	4.8	-13.7	-49.5	10.6	3.4	47.2*
COCC(=O)N(C)C[C@@H]1Oc2cc(-c3ccc(C#N)cc3)ccc2S(=O)(=O)N([C@@H](C)CO)C[C@@H]1C	-1.8	-8.6	4.3	0.3	0.3	-1.3
CCCCC1(CO)C(=O)N(c2ccccc2)N(c2ccccc2)C1=O	-2.9	x	-9.0	0.1	0.7	x
CCCCC1C(=O)N(c2ccccc2)N(c2ccc(O)cc2)C1=O (stereo not drawn)	-52.0	-130.1	-10.2	152.0*	1.2	-19.5
C[C@@H]1CN([C@H](C)CO)S(=O)(=O)c2ccc(C#CC3CC3)cc2O[C@@H]1CN(C)C(=O)Cc1ccncc1	-11.9	-6.8	-8.3	1.0	-1.3	-10.6
O=c1c2c([nH]c3ccccc13)CCCC2	2.6	98.5*	-13.0	x	0.8	-5.2
O=c1c2c([nH]c3ccccc13)C(=C1CCCC1)CC2	7.9	x	x	x	x	x
O=C(NCC(c1cccnc1)N1CCN(c2ccc(F)cc2)CC1)c1ccc2c(c1)OCO2 (stereo not drawn)	1.1	120.5*	-12.9	x	-5.0	-0.8
COc1ccc(N2CCN(C(CNC(=O)c3ccc4c(c3)OCO4)c3cccnc3)CC2)cc1 (stereo not drawn)	6.1	21.7	-7.2	x	-5.7	-1.3
Cc1sc2nc(-c3ccc(Br)cc3)oc(=O)c2c1C	9.6	-1.0	-13.1	x	-0.8	55.4*
C[C@@H]1CN([C@H](C)CO)C(=O)c2cc(NC(=O)c3ccccc3)ccc2O[C@@H](C)CCCCO[C@H]1CN(C)S(C)(=O)=O	-4.0	-10.5	x	-0.1	x	-0.3
C=CCN(c1ccccc1OC)S(=O)(=O)c1cccc(C(=O)OC2CCOC2=O)c1 (stereo not drawn)	4.2	113.8*	-4.0	x	3.6	x
CCN(CC)S(=O)(=O)c1cccc(C(=O)OC2CCOC2=O)c1 (stereo not drawn)	x	44.5	-4.5	0.5	3.8	1.3
CCC(=O)N1CC2(C1)CN(C(C)=O)[C@@H](CO)c1[nH]c3cc(OC)ccc3c12	-5.1	x	x	-0.3	x	x
Cc1noc(C)c1S(=O)(=O)N(C)C[C@H]1Oc2ccc(NC(=O)Cc3ccccc3)cc2CC(=O)N([C@H](C)CO)C[C@@H]1C	-2.9	-4.9	9.8	-2.8	0.5	-5.9
CN(C)S(=O)(=O)c1cccc(-c2cn3ccccc3n2)c1	-6.5	x	-10.3	x	-6.7	20.0
CN(C)S(=O)(=O)c1cccc(-c2cn3cc(Cl)ccc3n2)c1	4.1	6.9	-5.6	x	5.6	45.1*
CCCc1cc(C(=O)Nc2cc(Br)ccc2O)no1	-2.3	4.9	-1.0	0.2	-3.8	56.6*
CCCc1cc(C(=O)Nc2cc(Cl)ccc2O)no1	6.6	0.2	-18.7	0.4	-0.3	82.7*
Cc1ccc(-c2cc(C(=O)Nc3cc(C)ccc3O)no2)cc1	-12.1	26.8	-18.8	-0.1	-5.1	33.3
CCCCNC(=O)c1ccc(C#CC(C)(C)C)c(OC(C)=O)c1	7.5	x	63.8	x	-4.7	x
C[C@H]1CN([C@@H](C)CO)C(=O)c2cc(/C=C/c3ccccc3)cnc2O[C@@H]1CN(C)S(=O)(=O)c1cccs1	19.6	17.5	6.6	-0.3	-3.9	6.3
Cc1ccc(Sc2cnc3ccccc3n2)cc1	x	-19.3	-27.8	x	2.7	66.3*
O=c1[nH]c2c(s1)C=Nc1ccccc1N2	-14.0	14.3	-33.9	x	-0.3	54.0*
Cc1ccc(N(C(=O)C2CCC(=O)N2)C2(C(=O)NC3CCCCC3)CCCCC2)cc1 (stereo not drawn)	44.8	119.3*	4.2	x	2.0	-0.3
Cc1cc(C)nc(NC(=O)/C=C/c2ccccc2Cl)n1	1.3	x	x	x	x	x
Cc1cc(N)c2cc(NC(=O)/C=C/c3ccccc3Cl)ccc2n1	80.4*	-97.2	-20.4	x	-3.8	-82.2
Cc1cc(C)nc(NC(=O)/C=C/c2cccs2)c1	-20.9	-11.8	0.4	x	-0.8	81.0*
Cc1nc(NC(=O)/C=C/c2ccc(Cl)cc2Cl)sc1C(=O)N(C)C	x	x	x	-0.6	x	x
CCc1nnc(NC(=O)/C=C/c2cccs2)s1	1.5	-10.9	-12.5	1.4	9.8	57.7*
Cc1cc(C)nc(NC(=O)/C=C/c2ccc(Cl)cc2Cl)c1	-7.2	-8.3	-16.0	x	2.6	65.8*
Cc1ccc(-n2nc(C(=O)c3ccccc3)n3c(=O)cc(-c4ccccc4)nc23)cc1	x	-4.7	-9.5	x	0.0	84.0*
CCOC(=O)c1nn(-c2ccc(C)cc2)c2nc(Nc3ccccc3)cc(=O)n12	x	2.3	-5.3	x	-1.5	-12.7
COc1ccc2c3c(n(C)c2c1)[C@@H](CO)N(Cc1cccc(F)c1)CC31CCN(C)CC1	-1.9	x	x	-0.3	x	x
Cc1cc(C)c2c(=O)[nH]n(C3CCCCCC3)c2n1	87.9*	x	x	4.0	x	x
OC[C@H]1O[C@@H](c2nc3ccc(-c4nc(-c5ccc(Br)cc5)no4)cc3[nH]2)C[C@@H]1O	1.3	-2.5	0.8	-0.1	2.4	54.9*
N/C(=N\NC(=O)Nc1ccc(Cl)cc1)c1ccccn1	0.6	3.4	0.3	x	-5.4	47.4*
CNC(=O)N/N=C(\N)c1ccccn1	-3.0	-0.4	2.5	x	4.4	18.0

Reformatted: results already given.
Cc1ccc(N(C(=O)C2CCC(=O)N2)C2(C(=O)NC3CCCCC3)CCCCC2)cc1 (stereo not drawn)
  PGC1a acetyl inh = 44.8
  C2C12 statin = 119.3*
  UUG fidelity = 4.2
  E-sel inducer = x
  PglD inh = 2.0
  esBAF inh = -0.3

Cc1cc(C)nc(NC(=O)/C=C/c2ccccc2Cl)n1
  PGC1a acetyl inh = 1.3
  C2C12 statin = x
  UUG fidelity = x
  E-sel inducer = x
  PglD inh = x
  esBAF inh = x

Cc1cc(N)c2cc(NC(=O)/C=C/c3ccccc3Cl)ccc2n1
  PGC1a acetyl inh = 80.4*
  C2C12 statin = -97.2
  UUG fidelity = -20.4
  E-sel inducer = x
  PglD inh = -3.8
  esBAF inh = -82.2

Cc1cc(C)nc(NC(=O)/C=C/c2cccs2)c1
  PGC1a acetyl inh = -20.9
  C2C12 statin = -11.8
  UUG fidelity = 0.4
  E-sel inducer = x
  PglD inh = -0.8
  esBAF inh = 81.0*

Bioassay records: PubChem BioAssay, Broad Institute
